Laboratory results published in patent US20120122928A1 (priority 2010, published 2012).

Details: LC-MS determination in the neutral range, pH 7.8, 0.001 molar aqueous ammonium hydrogencarbonate and acetonitrile

SMILES	Log P [b]
O=C(Cn1nc(C(F)F)cc1C(F)F)N1CCC(c2nc(C3=NOC(COc4ccccc4C=NO)C3)cs2)CC1 (mixture of isomers) [I-64]	2.59
Cc1cc(C(F)(F)F)nn1CC(=O)N1CCC(c2nc(C3=NOC(C(C)(C)c4c(F)cccc4Cl)C3)cs2)CC1 (centres unmarked) [I-67]	4.36
Cc1ccc(Cl)cc1NC(=O)N1CCC(c2nc(C3=NOC(COc4c(F)cccc4Cl)C3)cs2)CC1 (centres unmarked) [I-51]	3.78
CC(O)(c1c(F)cccc1F)C1CC(c2csc(C3CCN(C(=O)Cn4nc(C(F)F)cc4C(F)F)CC3)n2)=NO1 (centres unmarked) [I-47]	2.94
O=C(Cn1nc(C(F)F)cc1C(F)F)N1CCC(c2nc(C3=NOC(CSc4ccccc4Br)C3)cs2)CC1 (centres unmarked) [I-63]	3.71
COc1ccccc1OCC1CC(c2csc(C3CCN(C(=O)Cn4nc(C(F)F)cc4C(F)F)CC3)n2)=NO1 (centres unmarked) [I-26]	3.03
CC(C)(c1c(F)cccc1Cl)C1CC(c2csc(C3CCN(C(=O)Cn4nc(C(F)F)cc4C(F)F)CC3)n2)=NO1 (centres unmarked) [I-69]	4.21
COc1ccc(C)cc1NC(=O)N1CCC(c2nc(C3=NOC(COc4ccccc4)C3)cs2)CC1 (centres unmarked) [I-38]	3.55
O=C(Cn1nc(C(F)F)cc1C(F)F)N1CCC(c2nc(C3=NOC(CSc4ccccc4)C3)cs2)CC1 (centres unmarked) [I-10]	3.51
Cc1ccc(C)c(CC(=O)N2CCC(c3nc(C4=NOC(COc5ccccc5)C4)cs3)CC2)c1 (centres unmarked) [I-29]	3.67
FC(F)c1cc(C(F)F)n(CC(=S)N2CCC(c3nc(C4=NOC(COc5ccccc5)C4)cs3)CC2)n1 (centres unmarked) [I-34]	3.66
Cc1cc(C(F)(F)F)nn1CC(=O)N1CCC(c2nc(C3=NOC(COc4c(F)cccc4F)C3)cs2)CC1 (centres unmarked) [I-54]	3.32
Cc1ccccc1OCC1CC(c2csc(C3CCN(C(=O)Cn4nc(C(F)F)cc4C(F)F)CC3)n2)=NO1 (centres unmarked) [I-13]	3.46
O=C(Cn1nc(C(F)F)cc1C(F)F)N1CCC(c2nc(C3=NOC(CSc4ccccc4Cl)C3)cs2)CC1 (centres unmarked) [I-61]	3.7
O=C(Cn1nc(C(F)F)cc1C(F)F)N1CCC(c2nc(C3=NOC(C(O)(c4ccccc4)C(F)(F)F)C3)cs2)CC1 (centres unmarked) [I-49]	3.13
Cc1ccc(C)c(NC(=O)N2CCC(c3nc(C4=NOC(COc5ccccc5)C4)cs3)CC2)c1 (centres unmarked) [I-41]	3.28
C[Si](C)(c1ccccc1)C1CC(c2csc(C3CCN(C(=O)Cn4nc(C(F)F)cc4C(F)F)CC3)n2)=NO1 (centres unmarked) [I-40]	3.99
Cc1cc(C(F)F)nn1CC(=O)N1CCC(c2nc(C3=NOC(COc4c(F)cccc4F)C3)cs2)CC1 (centres unmarked) [I-48]	2.93
COc1cccc(C=O)c1OCC1CC(c2csc(C3CCN(C(=O)Cn4nc(C(F)F)cc4C(F)F)CC3)n2)=NO1 (centres unmarked) [I-72]	2.94
Cc1cc(C(F)(F)F)nn1CC(=O)N1CCC(c2nc(C3=NOC(COc4c(Cl)cccc4Cl)C3)cs2)CC1 (centres unmarked) [I-65]	3.8
Cc1ccccc1SCC1CC(c2csc(C3CCN(C(=O)Cn4nc(C(F)F)cc4C(F)F)CC3)n2)=NO1 (centres unmarked) [I-70]	3.75
O=C(Cn1nc(C(F)F)cc1C(F)F)N1CCC(c2nc(C3=NOC(COc4ccccc4F)C3)cs2)CC1 (centres unmarked) [I-3]	3.2

SMILES	Log P [b]
CC(C)(c1c(F)cccc1F)C1CC(c2csc(C3CCN(C(=O)Nc4cc(C(F)F)ccc4C(F)F)CC3)n2)=NO1 (centres unmarked) [I-68]	4.04
Cc1cc(C(F)(F)F)nn1CC(=O)N1CCC(c2nc(C3=NOC(COc4ccccc4)C3)cs2)CC1 (centres unmarked) [I-37]	3.28
O=C(Cn1nc(C(F)F)cc1C(F)F)N1CCC(c2nc(-c3cc(COc4ccccc4)on3)cs2)CC1 [I-44]	3.52
O=C(Cn1nc(C(F)F)cc1C(F)F)N1CCC(c2nc(C3=NOC(COc4c(Cl)cccc4Cl)C3)cs2)CC1 (centres unmarked) [I-1]	3.66
CC(C)(c1c(F)cccc1F)C1CC(c2csc(C3CCN(C(=O)Cn4nc(C(F)F)cc4C(F)F)CC3)n2)=NO1 (centres unmarked) [I-66]	3.94
O=C(Cn1nc(C(F)F)cc1C(F)F)N1CCC(c2nc(C3=NOC(COc4c(F)cccc4Cl)C3)cs2)CC1 (centres unmarked) [I-74]	3.39
Cc1ccc(Cl)cc1NC(=O)N1CCC(c2nc(C3=NOC(COc4c(F)cccc4F)C3)cs2)CC1 (centres unmarked) [I-50]	3.54
CN(CC1CC(c2csc(C3CCN(C(=O)Cn4nc(C(F)F)cc4C(F)F)CC3)n2)=NO1)c1ccccc1 (centres unmarked) [I-14]	3.64
O=C(Cc1cc(Cl)ccc1Cl)N1CCC(c2nc(C3=NOC(COc4ccccc4)C3)cs2)CC1 (centres unmarked) [I-23]	3.82
O=C(Cn1nc(C(F)F)cc1C(F)F)N1CCC(c2nc(C3=NOC(CSc4c(Cl)cccc4Cl)C3)cs2)CC1 (centres unmarked) [I-58]	3.96
Cc1ccc(C)c(NC(=O)N2CCC(c3nc(C4=NOC(COc5c(Cl)cccc5Cl)C4)cs3)CC2)c1 (centres unmarked) [I-56]	3.9
O=C(Cn1nc(C(F)F)cc1C(F)F)N1CCC(c2nc(C3=NOC(COc4ccccc4Cl)C3)cs2)CC1 (centres unmarked) [I-71]	3.31
Cc1ccc(Cl)cc1NC(=O)N1CCC(c2nc(C3=NOC(COc4ccccc4)C3)cs2)CC1 (centres unmarked) [I-33]	3.5
O=C(Cn1nc(C(F)F)cc1C(F)F)N1CCC(c2nc(C3=NOC(COc4c(F)cccc4Br)C3)cs2)CC1 (centres unmarked) [I-75]	3.65
CC(=O)c1ccccc1OCC1CC(c2csc(C3CCN(C(=O)Cn4nc(C(F)F)cc4C(F)F)CC3)n2)=NO1 (centres unmarked) [I-12]	2.89
CC(C)(c1c(F)cccc1Cl)C1CC(c2csc(C3CCN(C(=O)Nc4cc(C(F)F)ccc4C(F)F)CC3)n2)=NO1 (centres unmarked) [I-53]	4.43
Cc1cc(C(F)F)nn1CC(=O)N1CCC(c2nc(C3=NOC(COc4c(Cl)cccc4Cl)C3)cs2)CC1 (centres unmarked) [I-45]	3.4
Cc1cc(C(F)(F)F)nn1CC(=O)N1CCC(c2nc(C3=NOC(C(C)(C)c4c(F)cccc4F)C3)cs2)CC1 (centres unmarked) [I-62]	4.15
O=C(CCC1CC(c2csc(C3CCN(C(=O)Cn4nc(C(F)F)cc4C(F)F)CC3)n2)=NO1)c1ccccc1 (centres unmarked) [I-6]	3.13
Cc1cc(C(F)(F)F)nn1CC(=O)N1CCC(c2nc(C3=NOC(COc4c(F)cccc4Cl)C3)cs2)CC1 (centres unmarked) [I-46]	3.56
O=C(Cn1nc(C(F)F)cc1C(F)F)N1CCC(c2nc(C3=NOC(CSc4ccccc4F)C3)cs2)CC1 (centres unmarked) [I-55]	3.47
O=C(Cn1nc(C(F)F)cc1C(F)F)N1CCC(c2nc(C3=NOC(COc4c(Br)cccc4Br)C3)cs2)CC1 (centres unmarked) [I-36]	3.82
